The values below come from ChEMBL document CHEMBL5055621, “Synthesis and Characterization of the Novel Rodent-Active and CNS-Penetrant P2X7 Receptor Antagonist Lu AF27139” (J Med Chem, 2021).

Assay [1] concerns the target T1, P2X purinoceptor 7 (Rattus norvegicus, UniProt Q64663).
T1 sequence (Q64663 whole entry): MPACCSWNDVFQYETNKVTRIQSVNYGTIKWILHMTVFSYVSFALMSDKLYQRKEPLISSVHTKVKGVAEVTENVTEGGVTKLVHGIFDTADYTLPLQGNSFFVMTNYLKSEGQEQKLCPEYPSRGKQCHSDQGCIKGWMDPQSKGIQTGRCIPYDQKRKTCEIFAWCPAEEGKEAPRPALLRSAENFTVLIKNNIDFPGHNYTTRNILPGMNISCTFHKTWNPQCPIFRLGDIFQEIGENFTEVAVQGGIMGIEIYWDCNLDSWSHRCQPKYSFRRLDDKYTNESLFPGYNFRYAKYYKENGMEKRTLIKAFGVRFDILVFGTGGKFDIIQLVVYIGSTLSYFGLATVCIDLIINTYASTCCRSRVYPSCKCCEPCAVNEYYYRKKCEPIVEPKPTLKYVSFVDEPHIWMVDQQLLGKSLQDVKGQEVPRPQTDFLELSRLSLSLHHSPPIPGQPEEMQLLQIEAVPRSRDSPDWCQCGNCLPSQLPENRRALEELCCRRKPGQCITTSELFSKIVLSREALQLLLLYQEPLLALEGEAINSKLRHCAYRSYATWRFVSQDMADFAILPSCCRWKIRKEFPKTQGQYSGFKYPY
Description: Antagonist activity at rat P2X7 receptor expressed in HEK293 cells assessed as inhibition of BzATP-induced calcium-flux measured after 60 mins by FLIPR analysis. The format is cell-based. A digest of the protocol:
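Stable rat or mouse P2X7 HEK293 cells in HBSS/20 mM HEPES/2.5 mM probenecid/0.05% BSA, pH 7.4, were loaded with Fluo-4 NW (37 °C 30 min, RT 30 min). Antagonist was preincubated before EC80 BzATP (rat 15 μM). After 30 min at RT, calcium fluorescence was read by FLIPR; n ≥ 3.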

The target in assay [2] is T1, P2X purinoceptor 7. Description: Displacement of [3H]-A-804598 from rat P2X7 receptor expressed in HEK293 cell membrane by in vitro binding assay. Type of assay: cell membranes. A digest of the protocol: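 Binding used membranes from P2X7-transfected HEK293 cells (rat 10 μg, human 40 μg, mouse 60 μg per well) with [3H]-A-804598.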

The pIC50 is the IC50 on a negative log10 scale, so that one unit is a factor of ten. Broadly, the pKi is −log10 of the Ki, conventionally taken in molar units.

Molecules are shown by their SMILES. pIC50, pKi: −log10 of the molar value.

As to `COc1ccc(CC(=O)NC(N/C(=N/C#N)Nc2cccc3ncccc23)C(C)(C)C)cc1OC` (configuration not stated), the pIC50 at P2X purinoceptor 7 [1] is 8.40. On P2X purinoceptor 7 [2], this compound gave a pKi of 7.23.
